The values below are quoted from earlier work in paper PMC7828495, “Synthesis, Stability, and Antidiabetic Activity Evaluation of (−)-Epigallocatechin Gallate (EGCG) Palmitate Derived from Natural Tea Polyphenols” (Molecules, 2021).

The subject of the data set is Mouse. To be noted: in vivo; cited from earlier work.

For the compound `CN(C)c1ccncc1` [4-dimethylaminopyridine (DMAP), 4-dimethylaminopyridine], the LD50 result is “LD50 250 mg/kg, medium toxicity”.
